The list shows a part of the results, in another mix than the full data. Activity calls are given as the source filed them.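 How the source made its calls: active means more than half of a compound's replicate wells show inhibition beyond 50%, single wells judged on their own value; inconclusive means some, but no more than half, of replicates pass 50% inhibition; inactive means no replicate passes 50% inhibition.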
biological target: Lysine-specific demethylase 4C (Homo sapiens) (UniProt Q9H3R0); assay: inhibitors of GASC-1 histone demethylase, primary screen, biochemical, fluorescence, DELFIA europium (AID 2099); conditions: GST-JMJD2C(1-420) H3K9me3 demethylation, at 2.35 µM, active compounds read high;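 further: signal counts dimethyl H3K9 product captured on neutravidin plate; 0% = median of DMSO wells and 100% = 0.3 times that DMSO median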

Sequences of proteins named here, by UniProt entry; tags and fusion partners are left off. Residues count along the entry.
UniProt Q9H3R0, 1-420 limits assumed: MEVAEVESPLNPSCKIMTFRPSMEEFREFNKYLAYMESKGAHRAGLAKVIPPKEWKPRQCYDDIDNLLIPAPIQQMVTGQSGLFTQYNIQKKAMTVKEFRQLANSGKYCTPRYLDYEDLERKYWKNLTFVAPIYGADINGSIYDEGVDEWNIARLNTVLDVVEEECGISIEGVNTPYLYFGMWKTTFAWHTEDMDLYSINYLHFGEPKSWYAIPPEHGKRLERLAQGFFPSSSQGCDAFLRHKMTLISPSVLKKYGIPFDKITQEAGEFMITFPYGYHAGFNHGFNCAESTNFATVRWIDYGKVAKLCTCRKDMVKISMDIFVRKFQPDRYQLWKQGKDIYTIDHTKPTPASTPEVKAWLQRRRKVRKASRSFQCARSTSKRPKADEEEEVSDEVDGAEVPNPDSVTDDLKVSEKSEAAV

SMILES	inhibition
O=[N+]([O-])c1ccc2c(c1)C=Nc1ccccc1O2	inactive: -1.41%
Cc1cccc(C)c1OP(C)(N)=O (configuration not stated)	inactive: 1.59%
CC(C)(C)c1ccc(OP(C)(=O)Nc2ccc(SC(F)(F)F)cc2)cc1 (configuration not stated)	inactive: -6.6%
O=[N+]([O-])c1cc([N+](=O)[O-])c(Nc2cccnc2)c([N+](=O)[O-])c1	inactive: -2.72%
Cc1cc(C)cc(OP(C)(N)=O)c1 (configuration not stated)	inactive: -2.9%
COc1ccc(OP(C)(=O)Nc2cccc(F)c2)cc1 (configuration not stated)	inactive: 1.45%
COc1ccccc1OP(C)(=O)Nc1cc(Cl)ccc1C (configuration not stated)	inactive: 1.25%
Cc1ccc(NP(C)(=O)Oc2ccccc2)c(C)c1 (configuration not stated)	inactive: 29.2%
COc1ccccc1OP(C)(=O)Nc1ccc(C)cc1 (configuration not stated)	inactive: -47.7%
CCOC(=O)c1ccc(NP(C)(=O)Oc2ccccc2)cc1 (configuration not stated)	inactive: 6.55%
CCN(CC)CCCOC(=O)C(O)(c1ccccc1)c1ccccc1	inactive: -0.535%
Cc1cc(C)cc(OP(C)(=O)Nc2ccc(SC(F)(F)F)cc2)c1 (configuration not stated)	inactive: 5.1%
CCc1ccc(OP(C)(=O)N2CCN(c3ccc([N+](=O)[O-])cc3)CC2)cc1 (configuration not stated)	inactive: 16.5%
CP(=O)(NC(=O)Nc1ccccc1)Oc1ccccc1 (configuration not stated)	inactive: 4.47%
CP(=O)(Oc1ccccc1)OC(c1ccccc1)C(F)(F)F (configuration not stated)	inactive: -5.79%
Cc1cccc(C)c1OP(C)(=O)Nc1ccc(SC(F)(F)F)cc1 (configuration not stated)	inactive: 2.79%
CP(=O)(Nc1ccc(SC(F)(F)F)cc1)Oc1ccc(Cl)cc1 (configuration not stated)	inactive: 1.17%
CP(=O)(Nc1ccccn1)Oc1ccc(Cl)cc1 (configuration not stated)	inactive: -6.55%
CCOC(=O)c1ccc(NP(C)(=O)Oc2ccc(OC)cc2)cc1 (configuration not stated)	inactive: 5.31%
O=[N+]([O-])c1cc([N+](=O)[O-])c(O)c([N+](=O)[O-])c1.c1ccc(Oc2ccncc2)cc1	inactive: 13.9%
CCOP(C)(=S)SCC(=O)NC(C)C(=O)O (configuration not stated)	inactive: 3.52%
CP(=O)(Nc1ccccc1Br)Oc1ccccc1 (configuration not stated)	inactive: -9.1%
COc1ccccc1OP(C)(=O)Nc1ccccc1 (configuration not stated)	inactive: -14.3%
CP(=S)(Nn1cnnc1)Oc1ccccc1 (configuration not stated)	inactive: 3.78%
CCOC(=O)C(CC)C1=NC(C)(C)Cc2ccccc21.O=[N+]([O-])c1cc([N+](=O)[O-])c(O)c([N+](=O)[O-])c1 (configuration not stated)	inactive: 1.67%
O=[N+]([O-])c1cc([N+](=O)[O-])c(Nc2nnnn2CCO)c([N+](=O)[O-])c1	inactive: 4.9%
CP(=O)(Nc1ccc(SC(F)(F)F)cc1)Oc1ccccc1 (configuration not stated)	inactive: 9.75%

Source: PubChem BioAssay AID2099 (Broad Institute, 2009)
